# Literature values in patent publication US20050054726A1, “Vaccine” (priority 2001, published 2005).
# Biological target: iNOS (Homo sapiens, UniProt P35228)
# Conditions: category per Alderton et al., Biochem J. (2001) 357, 593-615; cited from earlier work
compound,measurement,value
CNC(=N)NCCC[C@H](N)C(=O)O [L-NMMA],selectivity category of iNOS inhibitor,non-selective (Inhibitors with less than 10-fold selectivity for one particular NOS-type)
